Data from patent publication US20250367305A1, “ALBUMIN NANOCOMPOSITE COMPRISING PHYTOCHEMICAL AND COMPOSITION FOR IMPROVING MUSCLE DISEASE CONTAINING SAME” (SEOUL NATIONAL UNIVERSITY R&DB FOUNDATION, priority 2023, published 2025).
Like-named read-outs stand apart in the source and are kept apart here.

How the values were obtained:
[1] = in vivo
[2] = test system: M1-type macrophages (GLUT overexpressed); test: Uptake of FNR648-labeled albumin in RAW cells polarized to M1; assay type: cell-based
Description: The glycated albumin prepared in Preparation Example 1-1 was synthesized using glucose as a target ligand to selectively target GLUT (glucose transporter), which is overexpressed in M1-type macrophages.
To verify whether the albumin glycated with glucose can selectively target M1-type macrophages, RAW cells were polarized into M0 and M1 states, followed by treatment with FNR648-labeled glycated albumin (Alb-DBCO-Glc) and non-glycated albumin (Alb-DBCO).

[3] = Retention at the injection site after intramuscular injection (nuclear imaging); details: 0, 3, and 24 hours after injection

Glc(6)-Albumin(11): albumin with 11 ADIBO groups, 6 of which were substituted with glucose
retention at the injection site [1]: very high retention

glycated albumin: albumin with DBCO groups clicked with 6-azido-glucose, Preparation Example 1-1
fluorescence expression in M1 cells [2]: significantly increased | uptake in M1 macrophages compared to non-glycated albumin ([2]; FNR648 fluorescence, FIG. 6): more than fourfold higher uptake

Albumin(11): albumin platform introduced with 11 ADIBO functional groups
retention at the injection site [3]: very high retention
